Measurements taken from ChEMBL document CHEMBL1129039 (J Med Chem, 1996).

Sequences of proteins named here, by UniProt entry; tags and fusion partners are left off.
UniProt P25023, whole entry: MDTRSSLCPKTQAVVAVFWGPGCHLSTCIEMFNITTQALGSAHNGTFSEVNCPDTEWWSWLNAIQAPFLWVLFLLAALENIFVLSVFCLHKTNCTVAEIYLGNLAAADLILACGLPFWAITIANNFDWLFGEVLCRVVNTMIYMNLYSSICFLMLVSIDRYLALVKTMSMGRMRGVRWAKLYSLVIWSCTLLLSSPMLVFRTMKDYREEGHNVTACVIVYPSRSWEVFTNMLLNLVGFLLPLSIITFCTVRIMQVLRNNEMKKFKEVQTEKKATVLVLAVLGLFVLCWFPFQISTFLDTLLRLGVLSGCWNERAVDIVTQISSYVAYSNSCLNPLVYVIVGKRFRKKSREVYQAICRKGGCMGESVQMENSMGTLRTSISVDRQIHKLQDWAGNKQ

Target: B2 bradykinin receptor (Rattus norvegicus, UniProt P25023)
Assay: In vitro Bradykinin receptor B2 antagonist activity by using rat uterus functional assay
Format: tissue-based
In short: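 Uterine horns from female Sprague-Dawley rats primed with stilbesterol (100 μg/kg) 18 h earlier. Tissue held at 1 g tension in De Jalon's solution, 31 °C, aerated. […] Potency by Arunlakshana-Schild analysis.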

`NC(N)=NCCCC(N)C(=O)NC(CCCN=C(N)N)C(=O)N1CCC[C@H]1C(=O)N1C[C@H](O)C[C@H]1C(=O)NCC(=O)N[C@@H](Cc1cccs1)C(=O)N[C@@H](CO)C(=O)N(CC(=O)N1C2CCCCC2C[C@H]1C(=O)NC(CCCN=C(N)N)C(=O)O)Cc1ccccc1` (stereo in doubt) showed a pA2 of 7.3.
